# Literature values as cited in patent US7183291B2 (Council of Scientific and Industrial Research, priority 1999, dated 2007).
# Key:
# [1] = oral labelled primaquine; cited from earlier work
# erythrocytes = settings: incubated with G-6PD deficient erythrocytes; cited from earlier work
compound,measurement,setting,value
"COc1cc(NC(C)CCCN)c2ncccc2c1 (stereo not drawn) [Primaquine, 8-(4-amino-1-methylbutylamino)-6-methoxy quinoline, reference compound]","radioactivity in lung, adrenal, spleen, kidney, heart, blood and pancreas",[1],22%
same,radioactivity reached in to the plasma,[1],25%
same,oxidant activity,erythrocytes,little oxidant activity
